The source of these data is US20240409614A1 (DANMARKS TEKNISKE UNIVERSITET, published 2024).

Sequences and labels used below:
B1: A1AT-M351V/M358V (other)
chain: EDPQGDAAQKTDTSHHDQDHPTFNKITPNLAEFAFSLYRQLAHQSNSTNIFFSPVSIATAFAMLSLGTKADTHDEILEGLNFNLTEIPEAQIHEGFQELLRTLNQPDSQLQLTTGNGLFLSEGLKLVDKFLEDVKKLYHSEAFTVNFGDTEEAKKQINDYVEKGTQGKIVDLVKELDRDTVFALVNYIFFKGKWERPFEVKDTEEEDFHVDQVTTVKVPMMKRLGMFNIQHCKKLSSWVLLMKYLGNATAIFFLPDEGKLQHLENELTHDIITKFLENEDRRSASLHLPKLSITGTYDLKSVLGQLGITKVFSNGADLSGVTEEAPLKLSKAVHKAVLTIDEKGTEAAGAVFLEAIPVSIPPEVKFNKPFVFLMIEQNTKSPLFMGKVVNPTQK
B2: A1AT-M351I/M358V after treatment with H2O2 (other)
chain: EDPQGDAAQKTDTSHHDQDHPTFNKITPNLAEFAFSLYRQLAHQSNSTNIFFSPVSIATAFAMLSLGTKADTHDEILEGLNFNLTEIPEAQIHEGFQELLRTLNQPDSQLQLTTGNGLFLSEGLKLVDKFLEDVKKLYHSEAFTVNFGDTEEAKKQINDYVEKGTQGKIVDLVKELDRDTVFALVNYIFFKGKWERPFEVKDTEEEDFHVDQVTTVKVPMMKRLGMFNIQHCKKLSSWVLLMKYLGNATAIFFLPDEGKLQHLENELTHDIITKFLENEDRRSASLHLPKLSITGTYDLKSVLGQLGITKVFSNGADLSGVTEEAPLKLSKAVHKAVLTIDEKGTEAAGAIFLEAIPVSIPPEVKFNKPFVFLMIEQNTKSPLFMGKVVNPTQK
modifications: treated with 20 mM H2O2 for one hour at room temperature; oxidised residues not determined in the filing
B3: A1AT-M351V/M358I after treatment with H2O2 (other)
chain: EDPQGDAAQKTDTSHHDQDHPTFNKITPNLAEFAFSLYRQLAHQSNSTNIFFSPVSIATAFAMLSLGTKADTHDEILEGLNFNLTEIPEAQIHEGFQELLRTLNQPDSQLQLTTGNGLFLSEGLKLVDKFLEDVKKLYHSEAFTVNFGDTEEAKKQINDYVEKGTQGKIVDLVKELDRDTVFALVNYIFFKGKWERPFEVKDTEEEDFHVDQVTTVKVPMMKRLGMFNIQHCKKLSSWVLLMKYLGNATAIFFLPDEGKLQHLENELTHDIITKFLENEDRRSASLHLPKLSITGTYDLKSVLGQLGITKVFSNGADLSGVTEEAPLKLSKAVHKAVLTIDEKGTEAAGAVFLEAIPISIPPEVKFNKPFVFLMIEQNTKSPLFMGKVVNPTQK
modifications: treated with 20 mM H2O2 for one hour at room temperature; oxidised residues not determined in the filing
B4: A1AT-M351V/M358I (other)
chain: EDPQGDAAQKTDTSHHDQDHPTFNKITPNLAEFAFSLYRQLAHQSNSTNIFFSPVSIATAFAMLSLGTKADTHDEILEGLNFNLTEIPEAQIHEGFQELLRTLNQPDSQLQLTTGNGLFLSEGLKLVDKFLEDVKKLYHSEAFTVNFGDTEEAKKQINDYVEKGTQGKIVDLVKELDRDTVFALVNYIFFKGKWERPFEVKDTEEEDFHVDQVTTVKVPMMKRLGMFNIQHCKKLSSWVLLMKYLGNATAIFFLPDEGKLQHLENELTHDIITKFLENEDRRSASLHLPKLSITGTYDLKSVLGQLGITKVFSNGADLSGVTEEAPLKLSKAVHKAVLTIDEKGTEAAGAVFLEAIPISIPPEVKFNKPFVFLMIEQNTKSPLFMGKVVNPTQK
B5: A1AT-M351I/M358V (other)
chain: EDPQGDAAQKTDTSHHDQDHPTFNKITPNLAEFAFSLYRQLAHQSNSTNIFFSPVSIATAFAMLSLGTKADTHDEILEGLNFNLTEIPEAQIHEGFQELLRTLNQPDSQLQLTTGNGLFLSEGLKLVDKFLEDVKKLYHSEAFTVNFGDTEEAKKQINDYVEKGTQGKIVDLVKELDRDTVFALVNYIFFKGKWERPFEVKDTEEEDFHVDQVTTVKVPMMKRLGMFNIQHCKKLSSWVLLMKYLGNATAIFFLPDEGKLQHLENELTHDIITKFLENEDRRSASLHLPKLSITGTYDLKSVLGQLGITKVFSNGADLSGVTEEAPLKLSKAVHKAVLTIDEKGTEAAGAIFLEAIPVSIPPEVKFNKPFVFLMIEQNTKSPLFMGKVVNPTQK
B6: A1AT-M351V/M358V after treatment with H2O2 (other)
chain: EDPQGDAAQKTDTSHHDQDHPTFNKITPNLAEFAFSLYRQLAHQSNSTNIFFSPVSIATAFAMLSLGTKADTHDEILEGLNFNLTEIPEAQIHEGFQELLRTLNQPDSQLQLTTGNGLFLSEGLKLVDKFLEDVKKLYHSEAFTVNFGDTEEAKKQINDYVEKGTQGKIVDLVKELDRDTVFALVNYIFFKGKWERPFEVKDTEEEDFHVDQVTTVKVPMMKRLGMFNIQHCKKLSSWVLLMKYLGNATAIFFLPDEGKLQHLENELTHDIITKFLENEDRRSASLHLPKLSITGTYDLKSVLGQLGITKVFSNGADLSGVTEEAPLKLSKAVHKAVLTIDEKGTEAAGAVFLEAIPVSIPPEVKFNKPFVFLMIEQNTKSPLFMGKVVNPTQK
modifications: treated with 20 mM H2O2 for one hour at room temperature; oxidised residues not determined in the filing

In this experiment the target is elastase (EnzChek Elastase Assay kit, Invitrogen). Put plainly: cell-based or functional assay.
As to B1, the “IC50 before treatment with H2O2 (anti-elastase activity)” value was found to be 50.5 nM.
As to B2, the “IC50 after treatment with H2O2 (anti-elastase activity)” value was 54.2 nM.
On the same count and under the same terms, the value for B3 was 47.8 nM.
In the case of B4, the “IC50 before treatment with H2O2 (anti-elastase activity)” value is 50.8 nM.
On the same count and under the same terms, the value for B5 was 51.7 nM.
Take B6: the “IC50 after treatment with H2O2 (anti-elastase activity)” value stood at 45.6 nM.
